Laboratory results taken from patent publication US20030175822A1.

By UniProt entry, the sequences of proteins in these tests, tags left out.
UniProt P35372, whole entry: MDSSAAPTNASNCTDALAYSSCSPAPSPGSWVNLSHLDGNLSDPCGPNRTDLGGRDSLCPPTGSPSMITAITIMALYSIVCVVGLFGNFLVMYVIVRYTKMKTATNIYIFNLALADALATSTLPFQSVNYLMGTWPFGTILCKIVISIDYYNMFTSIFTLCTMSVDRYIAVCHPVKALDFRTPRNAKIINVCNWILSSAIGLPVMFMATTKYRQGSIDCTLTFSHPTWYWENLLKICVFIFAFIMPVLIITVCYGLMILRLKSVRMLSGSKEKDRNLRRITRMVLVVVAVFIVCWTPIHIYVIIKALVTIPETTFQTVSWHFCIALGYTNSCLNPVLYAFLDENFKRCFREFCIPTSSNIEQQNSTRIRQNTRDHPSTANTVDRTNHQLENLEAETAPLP

Columns and labels:
[1] = biological target: mu3 opiate receptor (human) (UniProt P35372); experiment: displacement of [3H]-dihydromorphine, membrane suspension of normal human lung
[2] = biological target: mu3 opiate receptor (human) (UniProt P35372); experiment: displacement of [3H]-dihydromorphine, membrane suspension of human granulocytes
[3] = biological target: mu3 opiate receptor (human) (UniProt P35372); experiment: displacement of [3H]-dihydromorphine, membrane suspension of human lung non-small cell carcinoma

Measured: IC50

(Tyr-D-Ala^2, Gly-N-Me-Phe^4, Gly(ol)^5)-enkephalin (peptide)
> 1 µM: all assays above
